# From patent US20120058997A1, “IMIDAZO[1,2-B]PYRIDAZINE AND PYRAZOLO[1,5-A]PYRIMIDINE DERIVATIVES AND THEIR USE AS PROTEIN KINASE INHIBITORS” (SuperGen, Inc., priority 2006, published 2012)
# Sequences of proteins named here, by UniProt entry; tags and fusion partners are left off.
# UniProt P11309, whole entry: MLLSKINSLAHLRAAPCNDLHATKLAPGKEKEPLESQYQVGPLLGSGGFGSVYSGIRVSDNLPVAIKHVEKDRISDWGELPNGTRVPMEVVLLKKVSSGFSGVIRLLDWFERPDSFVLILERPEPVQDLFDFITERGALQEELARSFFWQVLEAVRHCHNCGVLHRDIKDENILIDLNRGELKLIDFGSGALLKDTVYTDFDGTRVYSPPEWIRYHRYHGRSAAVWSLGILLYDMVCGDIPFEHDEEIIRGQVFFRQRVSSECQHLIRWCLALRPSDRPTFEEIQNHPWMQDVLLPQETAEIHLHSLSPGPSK
# Target: Pim-1 kinase (Homo sapiens, UniProt P11309)
# Assay: Promega Kinase-Glo Pim-1 kinase inhibition assay;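 also: in vitro Pim-1 reaction run 2 h at 30 °C, then leftover ATP measured by luciferase luminescence, where signal falls as kinase activity rises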
# Settings: IC50 on Pim1, Table X
smiles,measurement,value
"CO[C@H]1CC[C@H](Nc2ccc3ncc(-c4cccc(OC(F)(F)F)c4)n3n2)CC1 [Compound 8-11, 4-(trans-Methoxycyclohexyl)-3-(3-(trifluoromethoxy)phenyl)imidazo[1,2-b]pyridazin-6-amine]",IC50,< 10 nM
